Measurements from article PMC7737621 (Journal of medicinal chemistry, 2020).

Assay: physchem
Settings: pH 7.4

With CCCC(C)COc1ccc([C@H](Cc2nnc(N)o2)NC(=O)[C@@H](C)c2ccccc2)cc1 (stereo partly drawn) [Compound 84, (2S)-N-[(1S)-2-(5-Amino-1,3,4-oxadiazol-2-yl)-1-{4-[(2-methylpentyl)oxy]phenyl}ethyl]-2-phenylpropanamide Hydrochloride] the solubility kinetic was under 1 µM.

Counter-ions that a name gives are not always drawn.
